Test results reported in publication PMC7774954, “Interactomic affinity profiling by holdup assay: Acetylation and distal residues impact the PDZome-binding specificity of PTEN phosphatase” (PLoS ONE, 2020).

Tests used:
[1] = target: fpRSK1, fluorescein-labelled phosphorylated RSK1 PBM peptide; experiment: fluorescence polarisation; direct: N-terminally fluorescein-labelled PBM peptide (tracer) with increasing amounts of MBP-PDZ; 384-well plates; triplicate; direct binding model (ProFit)
[2] = target: fRSK1, fluorescein-labelled RSK1 PBM peptide; experiment: as above

Row | Substance | Kd [1] | Kd [2]
1 | SNX27-1, PDZ domain of SNX27 (from UniProt Q96L92 1-541) (domain or fragment) | 10.1 µM | –
2 | GOPC-1, PDZ domain of GOPC (from UniProt Q9HD26 1-462) (domain or fragment) | – | 19.9 µM
